Assay outcomes as filed in PubChem BioAssay.
PglD DTNB: PglD (C. jejuni) enzyme inhibition. purified PglD enzyme, DTNB colorimetric CoA detection. inhibition, % at 12.5 µM. actives 0.098% (n = 360,000); in the data active = inhibition above about 16%, passing the limit was not always enough
PDI inh: PDI (human) enzyme inhibition | PDI insulin aggregation turbidity, A650, 90 min | inhibition, % at 10 µM | actives 0.052% (n = 350,000);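 active = mean inhibition across replicates of 30% or more, whatever share of single replicates reach that level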
ERp5 block: ERp5 (human) disulfide isomerase inhibition; actives 0.05% (n = 350,000); inhibition, % at 9.99 µM; ERp5 insulin aggregation, absorbance 650 nm, 90 min; AID 651711; Q15084;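 active = mean replicate inhibition above about 25%, with every replicate also reaching it, limit read from the data, passing the limit was not always enough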
Yeast UUG start: modulators of yeast start codon fidelity, primary screen, whole organism, S. cerevisiae, single point, plate reader; S. cerevisiae UUG-firefly luciferase reporter, luminescence/redox ratio; activity score, % at 18.7 µM; 0.13% of 350,000 active; AID 602363, 2012;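 active = replicate mean at a twofold rise or more, about +100% in these data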;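 also: firefly luciferase made from a UUG start codon reports start codon fidelity; reporter light over untreated wells divided by growth signal over untreated wells; some hits fall short of that in this replicate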
ARNT TACC3 PPI: disrupts binding between human ARNT and TACC3. actives 0.66% (n = 390,000). AID 623870. inhibition, % at 9.99 µM. AlphaScreen His-ARNT PAS-B/GST-TACC3 binding, luminescence; TACC3 fragment carries E629A point mutation. Q9Y6A5;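 active = mean inhibition of replicates at least 50% and at least half of replicates each reaching 50%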
FGF22 binding: FGF22 (human) thermal shift binding; Q9HCT0; recombinant FGF22 thermal shift, SYPRO orange fluorescence; percent of sucrose octasulfate shift, DMSO zero; activity (Tm shift, normalised), % at 9.99 µM; actives 1.5% (n = 340,000);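 active = mean Tm shift, scaled 0 neutral to 100 positive control, at about 1.3% or above, every replicate too, limit read from the data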
Hits are given with their value; 0 = inactive; - = not tested or not shown. An excerpt weighted towards active compounds, which were near 1.9% of everything screened.

SMILES	PglD DTNB	PDI inh	ERp5 block	Yeast UUG start	ARNT TACC3 PPI	FGF22 binding
COc1ccc(OCC(O)CN(CCO)CC(O)Cn2ccc3ccccc32)cc1 (stereo not given)	0	0	0	0	0	43.1
CCOC(=O)c1c(NC(=O)CSc2ncccn2)sc2c1CC(C)(C)NC2(C)C	0	0	0	0	0	0
CCOC(=O)c1c(NC(=O)COc2ccccc2F)sc2c1CC(C)(C)NC2(C)C	0	0	0	0	0	18.5
Fc1ccc(-c2nc3ccc(Br)cn3c2Cc2ccccc2C(F)(F)F)cc1	0	-	0	0	-	0
FC(F)(F)c1ccccc1Cc1c(-c2cccc(Br)c2)nc2ccc(Br)cn12	0	-	0	0	-	19.9
CCCCNc1nc(=S)[nH]c2cc(OC)c(OC)cc12	0	0	-	0	59.7	-
COCCNc1nc(=S)[nH]c2cc(OC)c(OC)cc12	0	0	-	0	58.7	-
COc1ccc(CNc2nc(=S)[nH]c3cc(OC)c(OC)cc23)cc1	0	0	0	0	51.2	0
COc1cc2[nH]c(=S)nc(NCCCOC(C)C)c2cc1OC	0	0	-	0	54.9	-
C[C@@H]1CN([C@H](C)CO)C(=O)c2cc(-c3ccc(C#N)cc3)cnc2O[C@@H]1CN(C)CC1CCCC1	0	-	0	0	0	0
CC(C)CC#Cc1ccc2c(c1)O[C@@H](CN(C)C(=O)Cc1ccccn1)[C@@H](C)CN([C@@H](C)CO)S2(=O)=O	0	-	0	0	0	0
Cc1noc(C)c1NC(=O)Nc1ccc2c(c1)C(=O)N([C@H](C)CO)C[C@H](C)[C@@H](CN(C)S(=O)(=O)c1ccccc1)OCCCC[C@H](C)O2	0	-	0	0	0	-
O=C(NN=c1c(=O)c2ccccc2c1=O)c1ccccc1	0	0	32.5	0	0	0
O=C(N/N=C/c1oc(O)c2ccccc12)c1ccccc1	0	0	0	0	0	43.5
COc1ccc2c3c(n(C)c2c1)[C@@H](CO)N(C(=O)C1CCCCC1)CC31CCN(C(=O)CN(C)C)CC1	-	-	0	-	-	0
CC(C)(C)c1cc(NC(=O)c2ccco2)no1	0	0	27.7	0	0	0
N/C(Cc1nc(-c2ccc(Br)cc2)cs1)=N\O	-	0	0	-	0	43.4
N/C(Cc1nc(-c2ccc(F)cc2)cs1)=N\O	0	0	0	0	0	0
O=C(NC(=S)Nc1cccc(NC(=O)c2ccccc2)c1)c1cccc([N+](=O)[O-])c1	0	31.7	-	0	0	-
CN(C)C(=O)c1ccc(-c2ccc3c(c2)[C@@H]2[C@@H](CCN2C(=O)c2ccc4c(c2)OCO4)[C@H](CO)N3)cc1	0	-	-	0	-	-
C[C@H]1CCCCO[C@H](CN(C)C(=O)c2ccccc2)[C@@H](C)CN([C@@H](C)CO)C(=O)c2cc(NC(=O)Nc3ccccc3)ccc2O1	0	-	0	0	0	0
O=C(NCC[C@@H]1CC[C@H](NS(=O)(=O)c2cccc(F)c2)[C@H](CO)O1)C1CCOCC1	0	-	0	0	0	0
COc1ccc(C(=O)Nc2nnc(C3=COCCO3)o2)cc1	0	0	0	0	58.1	0
CCOc1ccc(C(=O)Nc2nnc(C3=COCCO3)o2)cc1	0	0	0	0	0	0
O=C(COc1ccc(Cl)cc1)Nc1nnc(C2=COCCO2)o1	-	0	0	-	47.0	0
SMILES	PglD DTNB	PDI inh	ERp5 block	Yeast UUG start	ARNT TACC3 PPI	FGF22 binding
Cc1ccc(NC(=O)Cn2nnc(C(=O)NCc3cccs3)c2N)cc1Cl	0	0	0	0	0	0
Nc1c(C(=O)NCc2cccs2)nnn1CC(=O)Nc1cccc(Cl)c1	-	0	0	-	0	43.1
C[C@H]1CN([C@@H](C)CO)S(=O)(=O)c2ccc(C3=CCCCC3)cc2O[C@@H]1CN(C)C(=O)C1CCC1	0	-	0	0	0	0
CCOC(=O)c1cc(=O)nc(N)s1	0	0	0	0	-	43.4
CCCc1nc(N)sc1C(=O)OCC	0	0	-	0	0	-
COc1cccc(-c2ccc([C@@H]3[C@H](CO)N4CCCCN(S(=O)(=O)c5cn(C)cn5)C[C@@H]34)cc2)c1	0	-	0	0	0	0
Cc1occc1C(=O)N/N=C/C1=C(N2CCOCC2)C(=C/c2ccc(Cl)cc2Cl)/CC1	0	0	0	0	0	43.2
Cc1occc1C(=O)N/N=C/c1sc(N2CCOCC2)nc1-c1ccccc1	-	0	0	-	-	0
COc1ccc(N2CCN(C(c3cccs3)C(C)NC(=O)c3ccco3)CC2)cc1 (stereo not given)	0	0	-	0	0	-
COc1ccc(N2CCN(C(c3cccs3)C(C)NC(=O)c3ccc4c(c3)OCO4)CC2)cc1 (stereo not given)	-	0	0	-	0	43.3
O=C(O)Cn1cc(/C=C2/NC(=O)N(c3ccc(Cl)cc3)C2=O)c2ccccc21	0	-	0	0	0	2.4
CC(C)n1cc(/C=C2\NC(=O)N(c3cccc(Cl)c3)C2=O)c2ccccc21	0	0	0	0	0	-
COc1ccc(C(=O)NNC(=O)CSc2nnc(C)n2CC2CCCO2)cc1 (stereo not given)	0	0	0	0	0	43.5
COC(=O)c1ccc(NC(=O)CSc2nnc(C)n2CC2CCCO2)cc1 (stereo not given)	0	0	0	0	0	0
CC(C)(C)C(=O)Nc1nc2c(s1)CN(Cc1ccccc1)CC2	-	0	0	-	0	43.2
O=C(Nc1nc2c(s1)CN(Cc1ccccc1)CC2)C1CCCC1	-	0	0	-	0	0
COc1ccc2c(CC(=O)NC3CCCc4ccccc43)coc2c1 (stereo not given)	-	0	-	-	0	-
Cc1cc2occ(CC(=O)NC3CCCc4ccccc43)c2cc1C (stereo not given)	-	0	0	-	0	43.3
CO[C@H]1CN(C)C(=O)c2cc(NC(=O)Nc3ccccc3F)ccc2OC[C@@H](C)N(Cc2ccccc2C(=O)O)C[C@H]1C	0	-	0	0	0	0
CCOC(=O)C1CCN(CC(=O)N(CC(C)C)c2c(N)n(CC(C)C)c(=O)[nH]c2=O)CC1	-	0	0	-	-	44.0
O=C(C[C@@H]1C[C@H]2c3cc(NC(=O)NC4CCCCC4)ccc3O[C@H]2[C@@H](CO)O1)NCc1cccnc1	0	-	0	0	0	0
CCc1ccc(C(=O)COC(=O)C(CCSC)NC(=O)c2ccccc2)cc1 (stereo not given)	-	0	0	-	0	43.5
CSCCC(NC(=O)c1ccc(C(C)(C)C)cc1)C(=O)O (stereo not given)	-	0	0	-	0	44.2
C[C@@H]1CN([C@@H](C)CO)C(=O)c2cc(NS(=O)(=O)c3ccc(Cl)cc3)ccc2O[C@@H]1CN(C)CC1CC1	0	-	0	0	0	0
C[C@@H]1CN([C@H](C)CO)C(=O)c2cc(-c3ccc(F)cc3)cnc2O[C@H]1CN(C)C(=O)Nc1ccccc1F	0	-	0	0	0	0
CSc1nc(S(=O)(=O)c2ccccc2)c(Cl)s1	-	0	0	-	0	43.0
NS(=O)(=O)c1ccc(N2C(=O)C3CC=CCC3C2=O)cc1 (stereo not given)	-	0	0	-	0	43.9
